Values of other authors, collected in patent US20150250887A1, “METHOD OF PREPARING RESIN TINCTURES” (JALEVA PHARMACEUTICALS, LLC, priority 2012, published 2015).
This is a selection: effects in other tests are not listed, and their absence says nothing.

Details: pH about 7.4

Compound: CCC(=O)N(c1ccccc1)C1CCN(CCc2ccccc2)CC1
- log D: 3.97
